For this test, the target named is H3 tetra-acetylated nucleosome (H3 K9, 14, 18, 23 acetylated; Xenopus laevis histone octamer on Cy5 labelled 0W0 DNA) (Xenopus laevis) (UniProt P84233).

The substance “RSC complex, P32597 1-1359; Q06488 1-889; Q06639 1-885; P38781 1-883; Q02206 1-625; P25632 1-483; P32832 1-435; P43609 1-557; Q06168 1-426; Q12406 1-477; Q05123 1-467” registered an initial rate of nucleosome sliding by RSC, H3 acetylated nucleosomes against wild type H3 nucleosomes as reference in the same reaction of 14.3 fold.
